{
  "source": "paper PMC9176691",
  "about": "“Design, synthesis and biological evaluation of novel diosgenin–benzoic acid mustard hybrids with potential anti-proliferative activities in human hepatoma HepG2 cells” (Journal of Enzyme Inhibition and Medicinal Chemistry, 2022)",
  "format_in_all_cases": "cell-based, human",
  "key": {"[1]": {"tested_on": "HeLa cells", "assay": "MTT anti-proliferative assay, HeLa", "conditions": "read-out: IC50 HeLa, 48 h treatment, average ± SD of three independent experiments"}, "[2]": {"tested_on": "HepG2 cells", "assay": "MTT anti-proliferative assay, HepG2", "conditions": "read-out: IC50 HepG2, 48 h treatment, average ± SD of three independent experiments"}, "[3]": {"tested_on": "MCF-7 cells", "assay": "MTT anti-proliferative assay, MCF-7", "conditions": "read-out: IC50 MCF-7, 48 h treatment, average ± SD of three independent experiments"}},
  "data": [
    {"smiles": "O=C(O)c1ccc(N(CCCl)CCCl)cc1", "values": [
      {"measurement": "IC50", "setting": "[1]", "result": "> 100", "unit": "µM"},
      {"measurement": "IC50", "setting": "[2]", "result": "> 50", "unit": "µM"},
      {"measurement": "IC50", "setting": "[3]", "result": 25.6, "unit": "µM"}
    ]}
  ]
}
